Measured values from ChEMBL document CHEMBL1130094, “Structure-activity relationships for a novel series of pyrido[2,3-d]pyrimidine tyrosine kinase inhibitors” (J Med Chem, 1997).

By UniProt entry, the sequences of proteins in these tests, tags left out. Where a name states a change or a piece, a line headed by the entry shows the natural chain unless it says otherwise.
UniProt P12931: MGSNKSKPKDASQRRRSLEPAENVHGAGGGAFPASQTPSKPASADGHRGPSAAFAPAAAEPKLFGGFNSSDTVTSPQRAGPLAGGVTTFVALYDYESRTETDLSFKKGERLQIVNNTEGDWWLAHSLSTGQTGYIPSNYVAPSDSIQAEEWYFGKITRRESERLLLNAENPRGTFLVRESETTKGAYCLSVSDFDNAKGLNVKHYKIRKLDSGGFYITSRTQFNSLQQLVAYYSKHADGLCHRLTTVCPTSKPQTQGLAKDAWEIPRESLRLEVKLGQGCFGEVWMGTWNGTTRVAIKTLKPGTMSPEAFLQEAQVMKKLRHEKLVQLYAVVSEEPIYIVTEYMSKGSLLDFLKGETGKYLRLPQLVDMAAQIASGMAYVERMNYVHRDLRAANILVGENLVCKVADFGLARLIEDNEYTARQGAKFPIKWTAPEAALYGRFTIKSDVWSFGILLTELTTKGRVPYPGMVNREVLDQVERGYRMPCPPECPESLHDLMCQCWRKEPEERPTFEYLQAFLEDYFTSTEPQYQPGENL

Target: Proto-oncogene tyrosine-protein kinase Src (Homo sapiens, UniProt P12931)
Assay: Inhibition of C-src tyrosine kinase

- IC50: 31 nM
Compound: CN1CCN(CCCNc2ncc3cc(-c4c(Cl)cccc4Cl)c(NC(=O)NC(C)(C)C)nc3n2)CC1
